Structures are written as SMILES.

From publication PMC2854129, “Spadin, a Sortilin-Derived Peptide, Targeting Rodent TREK-1 Channels: A New Concept in the Antidepressant Drug Design” (PLoS Biology, 2010) come the findings set out here.

Data set [1] deals with T1, TREK-1 (Mus musculus, UniProt P97438).
T1 sequence (P97438 1-426): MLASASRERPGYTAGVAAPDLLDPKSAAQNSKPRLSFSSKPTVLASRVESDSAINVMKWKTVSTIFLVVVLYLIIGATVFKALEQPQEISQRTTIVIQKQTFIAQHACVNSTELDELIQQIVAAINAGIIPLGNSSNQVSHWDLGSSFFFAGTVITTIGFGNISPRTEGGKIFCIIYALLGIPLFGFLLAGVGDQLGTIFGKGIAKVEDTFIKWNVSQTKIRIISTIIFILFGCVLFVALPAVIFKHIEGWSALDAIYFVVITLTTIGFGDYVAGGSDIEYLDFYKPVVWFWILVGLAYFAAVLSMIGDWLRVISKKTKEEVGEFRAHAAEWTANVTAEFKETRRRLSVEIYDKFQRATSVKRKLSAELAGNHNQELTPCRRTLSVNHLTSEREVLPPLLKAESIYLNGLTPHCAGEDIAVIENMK
Kind of data set: Whole-cell patch-clamp, TREK-1 transfected COS-7 cells. Type of data set: cell-based. Details: GFP; expressed in transfected cells; host or cells: COS-7 cells, DEAE-dextran transfection. The following applies: 100 nM spadin, 0 mV, 10 µM aa, K+ blockers; mean ± SD, n = 16. As for the experimental part:
All electrophysiological experiments were done on COS-7 cells seeded at a density of 20,000 cells/35-mm dish 24 h before transfection. Cells were transfected by the classical DEAE-dextran method with TREK-1-GFP plasmids (0.1 µg/µL). Cells were visualized 48–72 h after transfection using fluorescence.
The whole-cell patch-clamp technique was used to evaluate TREK-1 potassium channel current by using a RK 400 patch-clamp amplifier (Axon Instruments, USA), as previously described. Currents were lowpass filtered at 3 kHz, digitized at 10 kHz using a 12-bit analog-to-digital converter. […] The bath solution contained (in mM) 150 NaCl, 5 KCl, 3 MgCl2, 1 CaCl2, and 10 HEPES, adjusted to pH 7.4 with NaOH; the patch pipette solution contained (in mM) 155 KCl, 3 MgCl2, 5 EGTA, and 10 HEPES, adjusted to pH 7.2 with KOH. Cells were clamped at −80 mV and voltage changes were either applied by ramp (from −100 to 50 mV, 1 s in duration) or by step (from −100 to 40 mV, 1.5 s in duration). Cells were continuously superfused with a microperfusion system. The pipette capacitance was not subtracted from total membrane capacitance and there was no leak subtraction. […]
Pclamp software was used to analyze currents recorded in the whole-cell mode measured at 0 mV. Results are expressed as means ± SD. […]

The conditions of data set [2]: in vivo. As for the experimental part:
Since spadin exerted efficient effects after i.p. or i.v. administration, we evaluated its ability to pass through the blood-brain barrier. ^125I-labelled spadin (1 nmol of spadin plus 2×10^6 cpm ^125I-spadin) was i.v. injected and animals were sacrificed 30 min following injection. The brains were rapidly removed and homogenized. The radioactivity recovered in the brain was acid-extracted, quantified, and analyzed by HPLC. […] The concentration of spadin recovered into the brain was estimated to stand around 10 nM, a concentration that corresponds to the affinity of spadin for TREK-1 and sufficient to be active on TREK-1 channel activity. This value was also in the same range of the IC50 determined by electrophysiological measurements (Figure 3C).

In data set [3] the target is T1, TREK-1. Kind of data set: Whole-cell patch-clamp, native currents in β-TC3 pancreatic cell line. The following applies: 1 µM spadin, aa 10 µM, K+ blockers; read-out: inhibition of native current. Type of data set: cell-based. Further details: expressed in transfected cells; host or cells: COS-7 cells, DEAE-dextran transfection. As for the experimental part: Native currents elicited by these cells were recorded in the whole-cell configuration of the patch-clamp technique (as described for COS-7 cells) and in the presence of K^+ blockers.

As for `CC[C@H](C)[C@H](NC(=O)[C@@H]1CCCN1C(=O)CNC(=O)[C@H](CO)NC(=O)[C@H](Cc1c[nH]c2ccccc12)NC(=O)[C@H](CCCNC(=N)N)NC(=O)[C@@H]1CCCN1C(=O)[C@H](CC(C)C)NC(=O)[C@@H]1CCCN1C(=O)[C@H](C)NC(=O)[C@@H](N)Cc1ccc(O)cc1)C(=O)NCC(=O)N[C@H](C(=O)N[C@@H](CO)C(=O)N[C@@H](Cc1c[nH]c2ccccc12)C(=O)NCC(=O)N[C@@H](CC(C)C)C(=O)N[C@@H](CCCNC(=N)N)C(=O)O)C(C)C` [spadin], at TREK-1 [1], the “block of aa stimulated TREK-1 current” value was 63%±12%. Moreover, in data set [2], the “amount recovered in the brain after i.p. vs i.v.” value was “Identical amounts”. Besides, the inhibition at 1 µM at TREK-1 [3] came out at 36%.
